Ab-14 heavy chain CDR variants: yeast mating affinities

Target peptide (SARS-CoV-2 spike, HR2 region): PDVDLGDISGINAS

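Phage display of a naive human antibody library on the peptide gave the parent. Designed CDR sequences, proposed from the first random library and measured here. Several design methods are mixed in this list. AlphaSeq pools MATa yeast showing the antibodies with MATalpha yeast showing the peptide. Binding brings cells together so that they mate, and sequencing counts the barcode pairs among the diploids. Scores were corrected for input abundance and mapped to Kd with protein pairs of known affinity run in the same pool. Each pool was mated in six replicate cultures.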

Parent scFv Ab-14: VH joined to VL by a (GGGGS)3 linker. Changes lie in the heavy chain CDRs alone.
VH: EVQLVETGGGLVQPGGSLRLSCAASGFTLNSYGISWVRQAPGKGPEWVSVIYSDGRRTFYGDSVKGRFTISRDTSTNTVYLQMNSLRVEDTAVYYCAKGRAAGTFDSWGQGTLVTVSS
VL: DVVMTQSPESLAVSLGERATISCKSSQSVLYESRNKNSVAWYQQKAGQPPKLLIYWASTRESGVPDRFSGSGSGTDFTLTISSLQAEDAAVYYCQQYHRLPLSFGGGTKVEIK

Changes read parent residue, position, new residue, counted from the first residue of the VH shown.
This list holds designs with at most six substitutions.
Kd is apparent (estimated from mating counts) and averaged on the log scale over replicates with a signal. Smaller is tighter.
"nd" marks a missing value. The strain was present, yet no cells mated with the target were sequenced in any replicate, which points to weak or no binding.
Values of this round are not directly comparable with the first-round values of the same sequences.
Background: pairings of all heavy chain designs with three empty control strains gave a value in 1% of cases (median 120 nM, 5th percentile 7.0 nM). Values in that range, when seen in few replicates, are hard to tell from nonspecific mating.
The authors' rule: three or more of the six replicates give a measured affinity, fewer mean a poor binder.

N30L T58V G61M: nd (0 of 6 replicates).
T28W S31E T104F: nd (0 of 6 replicates).
T28N G61A R100N A101E S107T: 1.7 nM (6 of 6 replicates).
A101M S107T: 25 nM (2 of 6 replicates).
S31E D54V G61T R100V A101F: 170 nM (1 of 6 replicates).
S53A R100H S107L: 1.6 nM (6 of 6 replicates).
T28Q S31D G61I A101L: 22 nM (6 of 6 replicates).
F27N S31E G61T A101C: nd (0 of 6 replicates).
T28H S63D S107D: 170 nM (1 of 6 replicates).
F27N L29I A101N: 450 pM (1 of 6 replicates).
G99E R100L A101H: nd (0 of 6 replicates).
T28Q S31T G61A A101E: nd (0 of 6 replicates).
T28D S53A A101T: 280 pM (6 of 6 replicates).
F27R S31E G61T A101F: 1.0 nM (6 of 6 replicates).
T28E S31E A101H: 2.3 nM (3 of 6 replicates).
T28S S31E R100K S107M: 700 pM (6 of 6 replicates).
T28D G103D F105G: 1.2 µM (1 of 6 replicates).
F59Y R100M S107Q: 1.1 nM (6 of 6 replicates).
T28D G61I S63Q R100Q A101T: nd (0 of 6 replicates).
G26L L29I R100K S107L: 290 nM (2 of 6 replicates).
T58Q G61I D62G S63Q R100L: nd (0 of 6 replicates).
T28W S31E G61H G103V: nd (0 of 6 replicates).
F27L T28E S31E R100T: 4.6 nM (6 of 6 replicates).
T28D R100P: 1.2 nM (6 of 6 replicates).
T28S S31T G61A R100N: 730 pM (6 of 6 replicates).
T28S S31E G61C R100E S107R: 17 nM (6 of 6 replicates).
T28W S31E F59M A101Q: 4.0 nM (4 of 6 replicates).
T28E R100H S107Q: nd (0 of 6 replicates).
T28D S31E S53A G61A R100N A101L: 420 pM (6 of 6 replicates).
F27A S31Q K65V G103S T104D: nd (0 of 6 replicates).
G26E L29A S31D V64K G103L D106I: nd (0 of 6 replicates).
T28Y S31D G61I A101L: 22 nM (5 of 6 replicates).
T28N S31D S63D A101Y G103H: 680 nM (4 of 6 replicates).
T28D G61Q A101E S107T: 32 nM (3 of 6 replicates).
T28G S31D F59H G61I: 4.2 nM (6 of 6 replicates).
L29I G61S R100K: 16 nM (6 of 6 replicates).
T28S G61A A101V S107Q: 2.0 nM (6 of 6 replicates).
F59A G61M: 8.4 nM (6 of 6 replicates).
T28D G61Q A101S: 5.4 nM (6 of 6 replicates).
T28S S31Q G61S T104F: nd (0 of 6 replicates).
T28H R56L S63N F105K: 390 nM (4 of 6 replicates).
T28D A101T S107T: 2.6 nM (6 of 6 replicates).
T28W S31E S107E: nd (0 of 6 replicates).
S31D D62Y G103L T104D D106I: nd (0 of 6 replicates).
S31E K65R A101L S107Q: 3.8 nM (6 of 6 replicates).
S63A V64I S107L: nd (0 of 6 replicates).
T28S S31D A101Q: 300 pM (6 of 6 replicates).
T28R S31E R100Q: 40 nM (6 of 6 replicates).

Reference: Li et al. 2023, doi:10.1038/s41467-023-39022-2. File: FLAb, binding data.